Key:
[1] = biological target: Kappa-type opioid receptor (Homo sapiens, UniProt P41145); assay: Agonist activity at human kappa opioid receptor transfected in CHO cell membranes assessed as stimulation of [35S]GTPgammaS binding after 60 mins by scintillation counting analysis
Mus musculus = assay: Antinociceptive activity in ICR mouse assessed as thermal-stimulus induced tail flick latency at 1 to 10 mg/kg, sc measured up to 4 hrs relative to control; conditions: dose mg/kg 1-10, route subcutaneous, strain ICR

Sequences of proteins named here, by UniProt entry; tags and fusion partners are left off.
UniProt P41145, whole entry: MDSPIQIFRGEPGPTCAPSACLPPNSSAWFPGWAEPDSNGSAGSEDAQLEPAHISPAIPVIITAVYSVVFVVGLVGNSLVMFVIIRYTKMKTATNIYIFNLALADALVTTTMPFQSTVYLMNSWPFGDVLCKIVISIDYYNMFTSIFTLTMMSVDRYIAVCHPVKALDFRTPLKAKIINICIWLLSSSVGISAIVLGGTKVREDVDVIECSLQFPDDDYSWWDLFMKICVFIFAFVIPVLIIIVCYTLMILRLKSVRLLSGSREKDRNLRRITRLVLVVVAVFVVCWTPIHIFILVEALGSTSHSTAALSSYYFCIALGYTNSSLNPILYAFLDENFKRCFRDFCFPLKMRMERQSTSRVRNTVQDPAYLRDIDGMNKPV

Row | Compound | EC50 [1] | MPE (Mus musculus)
1 | CCC1C(=O)N(C2CCN(C3CCc4ccccc4C3)CC2)c2ccccc21 (centres undefined) | 0.153 µM | –
2 | CCC1C(=O)N(C2CCN(Cc3cccc4[nH]ccc34)CC2)c2ccccc21 (centres undefined) | > 10 µM | –
3 | CCC1C(=O)N(C2CCN([C@H]3CC[C@@H]4CCCc5cccc3c54)CC2)c2ccccc21 (mixture of isomers) | – | 30%
4 | CCC1C(=O)N(C2CCN(CCC(c3ccccc3)c3ccccc3)CC2)c2ccccc21 (centres undefined) | > 10 µM | –

— ChEMBL document CHEMBL3259735, “Designing bifunctional NOP receptor-mu opioid receptor ligands from NOP-receptor selective scaffolds. Part II” (Bioorg Med Chem, 2014)
